The subject of this test is wild-type AR (WT-AR). The test can be described thus: PSA luciferase reporter, WT-AR in 293 cells. Particulars: FBS conditions, 16 hours, Fig.2G. The test is classed as cell-based.

With `CNC(=O)c1ccc(N2C(=S)N(c3cnc(C#N)c(C(F)(F)F)c3)C(=O)C23CCC3)cc1F` [Apal, apalutamide], the WT-AR transcriptional activity result is “suppress”.

The values above are taken from publication PMC8413131 (Oncogene, 2021).
